{
  "source": "patent US20250287987A1",
  "about": "“AEROSOLISABLE MATERIAL” (NICOVENTURES TRADING LIMITED, priority 2022, published 2025)",
  "assay": "LogP (1-octanol/water partition coefficient) of terpenes, slow-stirring method",
  "description": "LogP is the partition coefficient of a molecule between aqueous and lipophilic phases, usually considered as octanol and water. As referred to herein, the LogP of specific terpenes can be determined using the “slow-stirring” method, wherein water, 1-octanol and the test substance are equilibrated in a thermostated stirred reactor. Exchange between the phases is accelerated by stirring. The stirring introduces limited turbulence which enhances the exchange between 1-octanol and water without microdroplets being formed. A suitable “slow-stirring” method is: Test No. 123: Partition Coefficient (1-Octanol/Water): Slow-Stirring Method, 30 Jun. 2022, OECD Guidelines for the Testing of Chemicals.",
  "data": [
    {"smiles": "C=CC(C)(O)CCC=C(C)C", "note": "(stereo not shown) [Linalool]", "values": [
      {"measurement": "logP", "result": 3.29}
    ]}
  ]
}
